{"source": "ChEMBL document CHEMBL1140141", "about": "“Total synthesis and biological evaluation of the marine bromopyrrole alkaloid dispyrin: elucidation of discrete molecular targets with therapeutic potential” (J Nat Prod, 2008)", "target": "Histamine H2 receptor (Cavia porcellus) (UniProt P47747)", "settings": "Brain, 10 uM"}
{"compound": "CN(C)CCCOc1ccc(CCNC(=O)c2cc(Br)c[nH]2)cc1Br", "note": "[DISPYRIN]", "values": [{"measurement": "inhibition", "value": 91, "unit": "%"}]}
